Measurements from patent US10238658B2, “1-pyrazolyl-3-(4-((2-anilinopyrimidin-4-yl) oxy) napththalen-1-yl) ureas as p38 MAP kinase inhibitors” (Respivert Limited, priority 2011, dated 2019).

Tests used:
IL-8 = test: Rhinovirus-induced IL-8 release in BEAS2B cells; type: cell-based; conditions: Homo sapiens, BEAS-2B, HRV-16
Protocol: (§1) Human rhinovirus RV16 was obtained from the American Type Culture Collection (Manassas, Va.). Viral stocks were generated by infecting Hela cells with HRV until 80% of the cells were cytopathic.
BEAS2B cells were infected with HRV at an MOI of 5 and incubated for 2 hr at 33° C. with gentle shaking for to promote absorption. The cells were then washed with PBS, fresh media added and the cells were incubated for a further 72 hr. The supernatant was collected for assay of IL-8 concentrations using a Duoset ELISA development kit (R&D systems, Minneapolis, Minn.). […]

ICAM-1 = test: Rhinovirus-induced ICAM-1 expression in BEAS2B cells; type: cell-based; conditions: Homo sapiens, BEAS-2B, read-out: IC50 Values for HRV Stimulated Release/Expression ICAM1 (BEAS2B)
Protocol: as §1
BEAS2B cells were infected with HRV at an MOI of 5 and incubated for 2 hr at 33° C. with gentle shaking for to promote absorption. The cells were then washed with PBS, fresh media added and the cells were incubated for a further 72 hr. The supernatant was collected for assay of IL-8 concentrations using a Duoset ELISA development kit (R&D systems, Minneapolis, Minn.).
The level of cell surface ICAM-1 expression was determined by cell-based ELISA. At 72 hr after infection, cells were fixed with 4% formaldehyde in PBS. After quenching endogenous peroxidase by adding 0.1% sodium azide and 1% hydrogen peroxide, wells were washed with wash-buffer (0.05% Tween in PBS: PBS-Tween). […] The ICAM-1 signal was detected by adding substrate and reading at 450 nm with a reference wavelength of 655 nm using a spectrophotometer. The wells were then washed with PBS-Tween and total cell numbers in each well were determined by reading absorbance at 595 nm after Crystal Violet staining and elution by 1% SDS solution. The measured OD450-655 readings were corrected for cell number by dividing with the OD595 reading in each well. […]

SMILES: COCC(=O)Nc1cc(Oc2ccc(NC(=O)Nc3cc(C(C)(C)C)nn3-c3ccc(C)cc3)c3ccccc23)ccn1 [Reference Compound, N-(4-(4-(3-(3-tert-butyl-1-p-tolyl-1H-pyrazol-5-yl)ureido)naphthalen-1-yloxy)pyridin-2-yl)-2-methoxyacetamide, reference compound]
- IC50 (IL-8): 0.065 nM
- IC50 (ICAM-1): 0.37 nM
